Experimental data taken from paper PMC3402552 (2012).

Tested on: 5-HF1F
Conditions: 5-HTR profiling

## CNC(=O)c1cc(Oc2ccc(NC(=O)Nc3ccc(Cl)c(C(F)(F)F)c3)cc2)ccn1 [sorafenib]
  binding (in words): doesn’t bind
